# Only some compounds are listed: those with a hit (about 2.3% of all), similar ones and a draw of the others.
# Glioma ERSR ind: ER stress response induction in glioma | Potency, µM, for the others: at the highest dose activation, most hits filed as activators | 420,000 compounds, 0.02% hits | U87-MG GRP78 promoter luciferase reporter, 16 h; also: potency is read from the fitted curve at half-maximal effect; series mostly up to about 76 µM; % of control where 0% means no effect; nearly all actives have a fitted effect of over 35% in size
#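 Stably transfected U87-MG human glioma cells carrying a GRP78-based luminescent sensor were seeded at 1000 cells/well, pin-dosed with compounds and incubated 16 h. Luciferase reagent was then added, and end-point luminescence was read after 10 min at room temperature.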
# Mito fusion yeast: blocks mitochondrial division or promotes mitochondrial fusion | 320,000 compounds, 0.23% hits | Potency, µM (series often up to 46.1 µM), for the others: at the top dose growth rescue (activation), usual class: activators | AID 485298 | S. cerevisiae fusion-defective mutant growth rescue, CellTiterGlo 48 h; also: potency is read from the fitted curve at half-maximal effect; % of control where 0% means no effect; nearly all actives have a fitted effect of over 45% in size
#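 Growth-rescue viability read-out: after 48 h at the non-permissive 37C in glycerol/ethanol YPEG, yeast mitochondrial fusion mutants are measured by CellTiterGlo luminescence; compounds (23 nl pinned per well) restoring growth score as division inhibitors or fusion activators.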
# Nrf2 ARE act: activators of Nrf2 (ARE) signaling. AREc32 ARE-luciferase reporter (MCF7-derived line), luminescence, 24 h. Potency, µM (top dose mostly 46.1 µM), without a hit: at the highest dose activation, actives largely listed as activators. 410,000 compounds, 0.31% hits; also: potency is read from the fitted curve at half-maximal effect; % of control where 0% means no effect; nearly all actives have a fitted effect of over 65% in size
#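 AREc32_Fluc, 1000 cells/well, OPTI-MEM + 5% FBS, o/n 37 deg C 5% CO2; 23 nL cpd by pin tool, 24 hr; Steady-Glo 30 min RT, luminescence.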
# Nrf2 inh: blocks Nrf2 signaling; A549 ARE-Fluc reporter, luciferase luminescence, 18-24 h; Potency, µM (titrated, usually from 46 µM), for the others: top-dose activity change, negative = inhibition, usual class: inhibitors; 360,000 compounds, 2.1% hits; also: potency is read from the fitted curve at half-maximal effect; % is scaled to controls: 0 for no effect and ±100 for the full control effect; nearly all actives have a fitted effect of over 60% in size
#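 Reporter: ARE-Fluc in A549. Exposure: 18-24 h, 37 °C, 5% CO2, 5% FBS OPTI-MEM. Readouts: fluorescent cytotoxicity (CellTiter-Fluor), then luminescent Nrf2 signal after BugLite.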
# A549 viability: kills or reduces viability of A549 cells in Nrf2 counter-screen; A549 ARE-Fluc cells, CellTiter-Fluor viability, 18-24 h; Potency, µM (top dose mostly 46 µM), inactives show at the highest dose activity change, negative = cytotoxicity, actives largely listed as inhibitors; 390,000 compounds, 0.16% hits; AID 504648; also: potency is read from the fitted curve at half-maximal effect; % is scaled to controls: 0 for no effect and ±100 for the full control effect
#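 A549 ARE_Fluc cells in 5% FBS OPTI-MEM were exposed to compounds in concentration-response for 18-24 h at 37 deg C. Viability was read by CellTiter-Fluor fluorescence (Ex 405/Em 525) after 30 min, before the luciferase read.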
# miR-21 reporter: miR-21 reporter, rising signal; HeLa miR-21 FLuc reporter, luciferase, 48 h; Potency, µM (doses to about 38.3 µM), for inactives: at the highest dose reporter change, positive = more light; 340,000 tested, under 10 active; AID 2288; active = well fitted rising curve with a large enough effect; inconclusive = small, poorly fitted or top-dose-only effect; inactive = no such curve, though single readings can be large or run the other way;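 further: % of control where 0% means no effect; miR-21 action dims this reporter so a rising signal means less miR-21 action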
#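 Luminescence from a firefly luciferase reporter carrying a miR-21 binding site downstream, stably expressed under a CMV promoter in HeLa cells that make miR-21 endogenously, reports miRNA modulation after 48 h compound exposure up to approximately 40uM final.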
# The depositor's hits bear a star; ? = inconclusive; . = no result. Calls follow the shape of the dose curve; as a rule, active = well fitted curve in the direction sought with a large enough effect; inconclusive = small, poorly fitted or top-dose-only effect, or another doubt; inactive = no such curve, though single readings can be large; an effect the other way counts as inactive or inconclusive.
nr	SMILES	Glioma ERSR ind	Mito fusion yeast	Nrf2 ARE act	Nrf2 inh	A549 viability	miR-21 reporter
1	Cc1cc(OC(C)C(=O)N2CCN(c3ccc(F)cc3)CC2)c2c(C)c(C)c(=O)oc2c1 (stereo not drawn)	-6%	23%	-1%	26µM*	-18%	-2%
2	Nc1nnc(SCC(=O)NNC(=O)c2ccc([N+](=O)[O-])cc2)s1	-2%	0%	0%	9%	3%	.
3	CC(=O)Nc1ccc(OCCC[n+]2ccccc2)cc1	-1%	2%	-1%	-18%	-3%	4%
4	CCCCCc1ccc(OCCC[n+]2ccccc2)c(CCCCC)c1	-14%	-12%	-3%	13µM*	?	?
5	CCCSc1nc(-c2ccccc2)cc(C(F)(F)F)c1C#N	-3%	-2%	11µM*	.	10%	3%
6	N#Cc1c(C(F)(F)F)cc(-c2ccccc2)nc1SCCN1CCOCC1	-1%	1%	12%	?	-2%	1%
7	CC1CCN(C(=O)c2ccc(-c3ccccc3Cl)o2)CC1	-1%	16µM*	3%	?	3%	.
8	O=C(c1ccc(-c2ccccc2Cl)o1)N1CCC1	1%	11%	3%	?	-1%	.
9	O=C(O)C1CCCN1c1ncccn1 (stereo not drawn)	-1%	-2%	0%	21%	.	-2%
10	CC1=C(C(=O)OCC2CCCO2)C(c2ccccc2OC(C)C)C2=C(CC(c3ccco3)CC2=O)N1 (stereo not drawn)	-1%	0%	0%	7%	7%	-4%
11	CC1=C(C(=O)OCC2CCCO2)C(c2cccc(C(F)(F)F)c2)C2=C(CC(c3ccco3)CC2=O)N1 (stereo not drawn)	0%	6%	4%	23µM*	?	17%
12	CCCCOC(=O)c1[nH]c2c(c1C)C(=O)CC(c1cc(OC)c(OC)c(OC)c1)C2 (stereo not drawn)	-5%	8%	5%	13µM*	-29%	27%

# Next section
nr	SMILES	Glioma ERSR ind	Mito fusion yeast	Nrf2 ARE act	Nrf2 inh	A549 viability	miR-21 reporter
13	C=CCOC(=O)c1[nH]c2c(c1C)C(=O)CC(c1cc(OC)c(OC)c(OC)c1)C2 (stereo not drawn)	-2%	1%	3%	10µM*	-30%	19%
14	COCCOC(=O)c1[nH]c2c(c1C)C(=O)CC(c1cc(OC)c(OC)c(OC)c1)C2 (stereo not drawn)	-1%	-6%	3%	?	-3%	25%
15	N#C/C(=C\c1ccc(-c2nc3ccccc3s2)o1)C(N)=O	3%	2%	11µM*	?	-4%	-45%
16	Cc1ccc(Cn2ccsc2=NC(=O)COC(=O)c2ccc(NC(=O)CC#N)cc2)cc1	-5%	-2%	1%	23µM*	-14%	.
17	Cc1ccc(Cn2ccsc2=NC(=O)CCl)cc1	-15%	2%	22%	10%	-4%	?
18	CC12CCC(C(=O)N3CCN(C(c4ccccc4)c4ccccc4)CC3)(OC1=O)C2(C)C (stereo not drawn)	-4%	-6%	-1%	23µM*	-19%	-3%
19	CC(=O)N1CCN(C(c2ccccc2)c2ccccc2)CC1	-4%	.	0%	.	.	.
20	O=C1C=C(N2CCCCC2)c2ccccc2C1=O	-13%	.	-3%	9.2µM*	18µM*	.
21	O=C1c2ccccc2C(=O)c2c1cccc2N1CCCC1	3%	19%	8%	7%	?	-26%
22	CC1=Cc2ccccc2C(C#N)N1C(=O)c1ccccc1 (stereo not drawn)	-5%	13µM*	1%	?	-24%	22%
23	COC(=O)c1c(NC(=O)CN2CCC3(O)CCCCC3C2c2cc(OC)ccc2OC)sc(C)c1C (stereo not drawn)	3%	-2%	3%	18µM*	-24%	?
24	COc1cccc(Cn2c(=O)c(-c3cccs3)nc3cnc(OCc4ccccc4)nc32)c1	-5%	.	.	.	.	.
25	CCNc1ccc(Br)cc(C(=O)/C=C/c2ccc(Cl)cc2)c1=O	10%	13µM*	?	?	?	1%
26	CNc1ccc(Br)cc(C(=O)/C=C/c2ccc(OC)cc2OC)c1=O	8%	?	?	11%	-10%	-21%

# Entries of single compounds from above:
# Record of `CCNc1ccc(Br)cc(C(=O)/C=C/c2ccc(Cl)cc2)c1=O` = Glioma ERSR ind: 10%; Mito fusion yeast: 13µM*; Nrf2 ARE act: ?; Nrf2 inh: ?; A549 viability: ?; miR-21 reporter: 1%
# Record of `COc1cccc(Cn2c(=O)c(-c3cccs3)nc3cnc(OCc4ccccc4)nc32)c1` = Glioma ERSR ind: -5%; Mito fusion yeast: .; Nrf2 ARE act: .; Nrf2 inh: .; A549 viability: .; miR-21 reporter: .
